Source: paper PMC8837702 (Archives of toxicology, 2021)

System: CHO cells expressing human NAT1 and CYP1A1
Conditions: 0-150 μM for 24 hr

ABP-induced DNA double strand breaks (then 800 μM ABP for 24 hr): concentration-dependent reductions
BNA-induced DNA double strand breaks (then 800 μM BNA for 24 hr): concentration-dependent reductions
Substance: 9,10-dihydro-9,10-dioxo-1,2-anthracenediyl diethyl ester [Compound 10]
